Active and inactive are the calls of the source. The rule behind the calls is not given here.
How the values were obtained:
[1] = target: T1, N-terminal Xaa-Pro-Lys N-methyltransferase 1 (Homo sapiens) (UniProt Q9BV86); assay: Substrate activity at NTMT1 (unknown origin) assessed as compound methylation at 10 uM incubated overnight by MALDI-MS methylation assay
T1 sequence (whole entry): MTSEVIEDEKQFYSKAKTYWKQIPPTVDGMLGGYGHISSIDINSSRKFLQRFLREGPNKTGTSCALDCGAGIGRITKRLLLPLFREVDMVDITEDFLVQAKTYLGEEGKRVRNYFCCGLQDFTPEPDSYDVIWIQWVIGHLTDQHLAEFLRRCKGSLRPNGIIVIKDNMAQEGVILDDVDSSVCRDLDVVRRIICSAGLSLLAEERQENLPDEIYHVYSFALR
In short: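 Compound (10 µM) incubated overnight at 37 °C with 0.1 µM NTMT1 and 3 µM SAM in 20 mM Tris pH 7.5, 50 mM KCl. Quenched 1:1 with 20 mM NH4H2PO4, 0.4% TFA in 1:1 acetonitrile/water. Methylated compound detected by MALDI-MS with 2,5-dihydroxybenzoic acid matrix.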

[2] = target: T1, N-terminal Xaa-Pro-Lys N-methyltransferase 1 (Homo sapiens); conditions: 200 nM
[3] = target: T1, N-terminal Xaa-Pro-Lys N-methyltransferase 1 (Homo sapiens); conditions: 50 nM

In the case of `CC[C@H](C)[C@H](NC(=O)[C@H](CCCNC(=N)N)NC(=O)[C@H](CCCCN)NC(=O)[C@@H]1CCCN1C(=O)CNCCCCCN(CC[C@H](N)C(=O)O)C[C@H]1O[C@@H](n2cnc3c(N)ncnc32)[C@H](O)[C@@H]1O)C(=O)N[C@@H](C)C(N)=O`, the Activity [1] was “Active”.
With `CC[C@H](C)[C@H](NC(=O)[C@H](CCCNC(=N)N)NC(=O)[C@H](CCCCN)NC(=O)[C@@H]1CCCN1C(=O)CNCCCCN(CC[C@H](N)C(=O)O)C[C@H]1O[C@@H](n2cnc3c(N)ncnc32)[C@H](O)[C@@H]1O)C(=O)N[C@@H](C)C(N)=O` the inhibition [2] was “Active” and the inhibition [3] was “Active”.

Source: ChEMBL document CHEMBL4619776, “Probing the Plasticity in the Active Site of Protein N-terminal Methyltransferase 1 Using Bisubstrate Analogues” (J Med Chem, 2020)
